Measurements: US11787787B2

Assays:
[1] = system: C57BL/6 wild-type adult male mice; assay: Voluntary alcohol intake assay (drinking-in-the-dark, 2-bottle choice), wild-type mice; details: wild-type C57BL/6 male mice, i.p. 3 mg/kg and 10 mg/kg, 10% ethanol, 4 hours/day
Procedure: Voluntary Alcohol Intake Assay:
C57BL/6 wild-type adult male mice were exposed to a limited access (4 hours/day), 2-bottle choice (water vs. 10% ethanol), drinking-in-the-dark (DID) protocol during their active cycle (dark phase) until the alcohol intake was stable. Bottle weights were measured directly before and after the 4-hour access period to the second decimal point to determine fluid intake during this access period. Weights of bottles were corrected for any spillage with fluid bottles placed on empty cages. After three weeks of exposure to the drinking model described above, alcohol and water intake on the day of infusion (Friday) was compared with the average alcohol intake over the preceding three days (Tuesday-Thursday) to determine if drug injection altered voluntary alcohol intake. Mice were injected with i.p. saline for vehicle measurements in week 4 and the following weeks with increasing doses of i.p. injected Example 1; 3 mg/kg in week 5 and 10 mg/kg in week 6. […] . Group size was 10 animals. Data were plotted using GRAPHPAD PRISM 5 software.

[2] = system: wild-type C57BL/6 adult male mice; assay: Locomotor activity in locomotor boxes; details: wild-type C57BL/6 male mice, i.p. 3 mg/kg, tracked for 90 minutes
Procedure: Square locomotor boxes from Med Associates (L 27.3 cm×W 27.3 cm×H 20.3 cm, St. Albans Vt., USA) were used to monitor locomotor activity during the active/dark phase of wild-type C57BL/6 adult male mice. Animals were habituated to the locomotor boxes for 60 minutes one day prior to drug testing. […] . Group size was 5-6 animals. Data were plotted using GRAPHPAD PRISM 5 software.

COc1cccc(N(C(=O)c2cc3ccccc3s2)C2CCN(C)CC2)c1
voluntary alcohol intake (alcohol use) [1]: dose-dependently decreased alcohol use
locomotor activity compared to saline [2]: did not differ in their locomotor activity

Some compounds may have been tested in ways that are not shown here.
